Binding of CDR-mutated scFvs to a peptide of the spike HR2 region

The target is the same throughout: PDVDLGDISGINAS, from the HR2 region of SARS-CoV-2 spike.

Each scFv is VH, the linker GGGGSGGGGSGGGGS, VL, as in the parent Ab-14, and differs from it in the CDRs of the light chain only.
VH: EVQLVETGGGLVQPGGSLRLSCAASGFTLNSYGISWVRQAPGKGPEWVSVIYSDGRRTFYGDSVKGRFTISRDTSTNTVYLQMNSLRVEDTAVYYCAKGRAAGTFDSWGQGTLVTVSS
VL: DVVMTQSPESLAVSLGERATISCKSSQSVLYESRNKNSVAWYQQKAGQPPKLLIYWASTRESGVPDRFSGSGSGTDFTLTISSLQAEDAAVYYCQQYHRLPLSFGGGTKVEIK

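The variants were designed computationally from a first round of random CDR variants and then made and measured. Group labels follow the data file (Ctrl: baseline library sampled from a position-specific scoring matrix, with some repeated check sequences; Rand: our label for a block that the file lists under HC and that is probably the random mutants of the ten best first-round binders; GP: Gaussian process model; HC: hill climbing; Gen: genetic algorithm; Gibbs: Gibbs sampling; a sequence that several methods proposed may carry one label only). The scFvs were displayed on barcoded MATa yeast, the peptide on MATalpha yeast. Pairs that bind mate more often; barcode pairs of the diploids are counted by sequencing. The ratio of observed to expected reads was calibrated, replicate by replicate, on BCL2-family standards whose Kd was known from biolayer interferometry. The assay was run in six technical replicates.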

Variants are written as CDR1, CDR2 and CDR3 of the light chain (limits as in the source). Parent: KSSQSVLYESRNKNSVA, WASTRES, QQYHRLPLS. This list holds designs with at most six substitutions. Values are apparent Kd, the geometric mean of the replicates that gave a signal; lower means stronger binding. "nd" means that the variant was in the library but no mating with the target was seen in any replicate; the authors take this as a sign of poor binding, and no number exists. As a blank, each scFv also met three strains without target: over all light chain designs, 4% of these pairings were detected, typically at 430 nM and seldom below 38 nM. The control count says in how many pairings with the empty strains this scFv gave a signal. A sequence that the file lists under several names has all its replicates pooled. The parent sequence was in this pool as ten entries: three were never detected, three once, and four in most replicates, with averages from 2.2 nM to 240 nM. The authors' rule: three or more of the six replicates give a measured affinity, fewer mean a poor binder. The range of this assay differs from that of the first round, and the authors advise against merging the two.

CDR-L1,CDR-L2,CDR-L3,group,apparent Kd,seen in,empty controls
FSAQSVLYESRNFNSVA,HASTRED,QQYHRLPLS,GP_HC,5.7 nM,6 of 6,2 of 18
KLSQSELYESRNKNSVA,EASQREV,QQYHRLPLS,GP_Gen,1.6 nM,6 of 6,1 of 18
KSSDSVLYESRGLNSVA,WASTRES,QQYHRLPLS,Ctrl,130 nM,6 of 6,1 of 18
KFSQSVLYESTTHNSVA,NASTRES,QQYHRLPLS,GP_HC,770 pM,6 of 6,0 of 18
KSSQSVLDESRNKNSVA,WGSTRES,QQYHRLPLS,Ctrl,6.9 nM,6 of 6,0 of 18
KVSISVLLESRNKNSVA,EASTRES,QQYHRLPLS,GP_HC,1.9 nM,6 of 6,0 of 18
KFSQSMLFSSRNKNSVA,WASTRES,QQYHRLPLS,Ctrl,7.9 nM,6 of 6,0 of 18
KVSQSSDYESRNKNSVA,WASHRES,QQYHRLPLS,Ctrl,16 nM,6 of 6,1 of 18
KQSQSVLMESRNVNSVA,DASTRES,QQYHRLPLS,GP_HC,950 pM,6 of 6,0 of 18
HSSPSVLYESSNKNSVA,NASTRES,VQYHRLPLS,Rand,50 µM,1 of 6,1 of 18
KSSQSVLYESKNKNSVA,WASTREY,QQYNRLPLS,Ctrl,190 nM,6 of 6,0 of 18
KLSQSVLYEDRVKNSVA,GASTRES,QQYHRLPLS,GP_HC,810 pM,6 of 6,0 of 18
KSSQSDGYESRNKNSVA,GASTRES,QQYHRLPLS,GP_HC,14 nM,6 of 6,0 of 18
KSLQSVLYESRDKNAVA,HASTRED,QQYHRLPLS,GP_HC,1.9 nM,6 of 6,0 of 18
KLSQSQLYESRNSKSVA,NASTRVS,QQYHRLPLS,GP_Gibbs,2.0 nM,6 of 6,3 of 18
KLQQSVLYESRNKNNVA,EASTRES,QQYHRLPLS,GP_Gen,510 pM,6 of 6,3 of 18
KSSMSVMYESRNKNSVA,WASTRES,QQYHQLPLS,Ctrl,95 nM,6 of 6,0 of 18
KSSQSVLYESRNKNSVA,DASTRQS,QQYHRLPLS,Ctrl,1.3 nM,6 of 6,2 of 18
KASQSVLYESRNKNSVA,EASTRES,QQYHRLPLS,GP_Gen,4.3 nM,6 of 6,1 of 18
KSGQSVLYESRNKNSVA,GASTRES,QQYHRLPLI,GP_HC,6.6 nM,6 of 6,1 of 18
HSSPSGLYESRNKNNVA,NASTRES,QQYHRLPLS,GP_HC,520 pM,6 of 6,0 of 18
KLSQSVLYMSRNKNSVA,NASTRES,QQYHRLPLS,GP_Gen,1.5 nM,6 of 6,0 of 18
KSSQSVLYESTNKNSVA,WASTRES,QQYHRLPLS,Ctrl,18 nM,6 of 6,1 of 18
KLQQSTPYESRNKNSVA,SASTREE,QQYHRLPLS,GP_HC,670 pM,6 of 6,1 of 18
KLSQSDLYESRNKNSVA,NASQRMS,QQYHRLPLS,GP_Gen,520 pM,6 of 6,0 of 18
KSSQPVLYESRNKNSVA,SASTRES,QQYHRLPLS,Ctrl,13 nM,6 of 6,1 of 18
KSSQSVLAESFNKNSVA,GASTREA,NQYHRLPLS,Ctrl,nd,0 of 6,0 of 18
KSLQSVLYESRNKNSVA,NASTRED,QQYHRLPLS,GP_HC,4.3 nM,6 of 6,2 of 18
KLPQSTLYESRNKNSVA,NASTRMS,QQYHRLPLS,GP_Gen,1.0 nM,6 of 6,0 of 18
KLSWSVLYEVRNKNSVA,DASTRES,QQYHILPLS,Ctrl,2.0 nM,6 of 6,1 of 18
KSSQSMWYESRNKNSVA,NASTRNS,QQYHRLPLS,Ctrl,41 nM,6 of 6,0 of 18
KSLQSVLYESRNKNSVA,HASTRED,QLYHRLPLM,GP_HC,9.8 nM,6 of 6,0 of 18
KSSQSVLYESRNKNSVA,FASTRES,QCYHRLPLS,Ctrl,nd,0 of 6,1 of 18
KSSQSVLYESRNKNSVA,NASTRES,QQYCRLPLS,Ctrl,24 nM,6 of 6,1 of 18
KVSQSVLFESRMKNSVA,DASTRCS,QQYHRLPLS,GP_HC,1.0 nM,6 of 6,2 of 18
KISQPVLYESRNKNSIA,KATTRES,QQYHRLPLV,Ctrl,6.6 nM,30 of 30,2 of 90
KLMQSSLYDSRNKNSVA,QASTREW,QQYHRLPLS,GP_Gibbs,2.9 nM,6 of 6,0 of 18
HSSPSELYESRNKNSVA,NASTRES,QQYHRLPLQ,GP_HC,1.2 nM,6 of 6,2 of 18
KFGQGVLYESRNKNSRA,GASTRES,QQYHRLPLS,Rand,nd,0 of 6,0 of 18
KLSQSVLYESRNKNSVA,WCSTRES,QQYHRLPLS,Ctrl,170 nM,2 of 6,2 of 18
KSSQSVLYESRNKNSVA,HARTRES,QQCERLPLS,Ctrl,nd,0 of 6,0 of 18
KVEQSMLYESRNKNSVA,NASTRES,QQYHRLPLS,GP_Gen,570 pM,6 of 6,1 of 18
KLSDSVLYESRNKNSVA,EASTRES,QQYHRLPLS,GP_Gen,530 pM,6 of 6,0 of 18
KSSHSVLYESRNKNSVA,WASTREV,QQYHRLPLS,Ctrl,140 nM,1 of 6,0 of 18
KSSQSELYESRNKNSVA,NASQRMS,QQYHRLPLS,GP_Gen,780 pM,6 of 6,0 of 18
KMSQSVLYFSRNKNSVA,WASTRES,QQYHRLPLS,Ctrl,3.9 nM,5 of 6,0 of 18
KVSQSVPYESRNKNAVA,EASTRES,QQYHRLPLS,GP_Gen,580 pM,6 of 6,3 of 18
KVSQSMWYESRNKNSVA,DASQRES,QQYHRLPLQ,GP_Gibbs,490 pM,6 of 6,3 of 18
KLSQSQLYESRNKNSVA,NASTRLS,QDYHRLPLS,GP_Gen,2.5 nM,6 of 6,0 of 18

From the list, the first 4 with no signal in any replicate:

{"CDR-L1": "KSSQSVLAESFNKNSVA", "CDR-L2": "GASTREA", "CDR-L3": "NQYHRLPLS", "group": "Ctrl", "apparent Kd": "nd", "seen in": "0 of 6", "empty controls": "0 of 18"}
{"CDR-L1": "KSSQSVLYESRNKNSVA", "CDR-L2": "FASTRES", "CDR-L3": "QCYHRLPLS", "group": "Ctrl", "apparent Kd": "nd", "seen in": "0 of 6", "empty controls": "1 of 18"}
{"CDR-L1": "KFGQGVLYESRNKNSRA", "CDR-L2": "GASTRES", "CDR-L3": "QQYHRLPLS", "group": "Rand", "apparent Kd": "nd", "seen in": "0 of 6", "empty controls": "0 of 18"}
{"CDR-L1": "KSSQSVLYESRNKNSVA", "CDR-L2": "HARTRES", "CDR-L3": "QQCERLPLS", "group": "Ctrl", "apparent Kd": "nd", "seen in": "0 of 6", "empty controls": "0 of 18"}

Reference: Li et al. 2023, doi:10.1038/s41467-023-39022-2. File: FLAb, binding data.